Compound activity (PubChem)
MITF TRPM1 HTS – increases MITF-driven TRPM1 promoter luciferase signal; 300,000 tested, 0.75% active; AID 588334; SK-MEL-5 TRPM1-promoter luciferase, 24 h; % of positive control, neutral wells = 0; activation, % at 12.5 µM;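 active = mean activation of at least 80% with every replicate also reaching 80%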
esBAF inh – SWI/SNF esBAF complex inhibition | reporter increase, % at 12.5 µM | 350,000 tested, 2% active | mouse ES cells, Bmi1-luciferase knock-in reporter, 24 h; 100% = twice the neutral-well signal; in the data active = activation above about 40%;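 also: a rise in the Bmi1 reporter signal indicates esBAF inhibition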
UUG fidelity – modulators of start codon recognition fidelity in yeast; AID 602363; hit rate 0.13% among 350,000; activity score, % at 18.7 µM; S. cerevisiae UUG-firefly luciferase reporter, luminescence/redox ratio;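 active = replicate mean at a twofold rise or more, about +100% in these data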;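 note: firefly luciferase made from a UUG start codon reports start codon fidelity; reporter light over untreated wells divided by growth signal over untreated wells; some hits fall short of that in this replicate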
Wnt bcat act – Wnt/beta-catenin pathway activation | Wnt/beta-catenin reporter cell assay, activator, plate reader | activation, % at 9.35 µM | 300,000 tested, 1.2% active | AID 743398; in the data active = activation above about 30%, passing the limit was not always enough
miR-122 sensor – blocks miR-122 activity in Huh7 sensor cells; Huh7 miR-122 Renilla luciferase sensor, 48 h; neutral wells = 0, positive control = 100; activation (reporter increase), % at 12.5 µM; 340,000 tested, 0.3% active;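 active = mean replicate activation score at least 90 and every replicate individually at or above 90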;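 also: higher luciferase means less miR-122 activity so hits act as miR-122 inhibitors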
PglD inh – blocks C. jejuni PglD acetyltransferase activity; purified PglD enzyme, DTNB colorimetric CoA detection; inhibition, % at 12.5 µM; 360,000 tested, 0.098% active; AID 602405; in the data active = inhibition above about 16%, passing the limit was not always enough
Each line names hits and unclear results; the compound was inactive in the other large screens. Hits are enriched below; roughly 2.8% of the tested compounds scored in any of these assays.

C/C(CC(=O)Nc1ccccn1)=N\NC(=O)c1ccccc1O	miR-122 sensor 261.6
C/C(CC(=O)Nc1ccc2c(c1)OCCO2)=N\NC(=O)c1ccccn1	esBAF inh 51.9 (no result: UUG fidelity, PglD inh)
C[C@@H]1CN([C@@H](C)CO)S(=O)(=O)c2ccc(/C=C/c3ccccc3)cc2O[C@@H]1CN(C)C(=O)NC1CCCC1	none (no result: MITF TRPM1 HTS, Wnt bcat act)
Cc1ccc(C)c(N=Nc2nc3ccccc3n2C)c1	esBAF inh 41.4 (no result: Wnt bcat act, miR-122 sensor)
COc1ccc(N=C2SC(CC(=O)Nc3ccccc3)C(=O)N2Cc2ccco2)cc1 (stereo not drawn)	Wnt bcat act 44.1
COc1ccc(N=C2SC(CC(=O)Nc3ccccc3F)C(=O)N2Cc2ccco2)cc1 (stereo not drawn)	none (no result: esBAF inh, UUG fidelity, Wnt bcat act, miR-122 sensor, PglD inh)
CC(/C=N/NC(=O)c1cccs1)=C\c1ccco1	esBAF inh 98.2, Wnt bcat act 38.9
CNC(=S)N/N=C/c1ccc(C(C)C)cc1	esBAF inh 58.6 (no result: Wnt bcat act)
CN(C)c1ccc(/C=N/NC(=S)NCc2ccccc2)cc1	none (no result: MITF TRPM1 HTS)
CNC(=S)N/N=C/c1ccc(N(C)C)cc1	Wnt bcat act 48.0 (no result: MITF TRPM1 HTS, esBAF inh, UUG fidelity, miR-122 sensor, PglD inh)
CC(C)c1ccc(/C=N/NC(=O)c2ccccc2Cl)cc1	none (no result: esBAF inh, UUG fidelity, miR-122 sensor, PglD inh)
O=C(CC(=O)c1cc(Cl)ccc1O)c1ccccc1	esBAF inh 49.3
Cc1cccc(C(=O)CC(=O)c2cc(Cl)ccc2O)c1	esBAF inh 64.2 (no result: Wnt bcat act)
COc1ccc(C(=O)Nc2ccc(C)c(S(=O)(=O)N3CCCCCC3)c2)cc1	none (no result: esBAF inh, UUG fidelity, PglD inh)
COc1ccc(NS(=O)(=O)c2cc(NC(=O)c3ccc(=O)[nH]c3)ccc2C)cc1	miR-122 sensor 99.6
Cc1noc(C)c1NC(=O)N(C)C[C@@H]1OCCCC[C@@H](C)Oc2ccc(NS(=O)(=O)c3ccc(Cl)cc3)cc2C(=O)N([C@H](C)CO)C[C@H]1C	none (no result: MITF TRPM1 HTS, Wnt bcat act)
CCc1nnc(NC(=O)CSc2ncnc3c2cnn3-c2ccc(OC)cc2)s1	Wnt bcat act 37.9
O=C(C[C@@H]1CC[C@H](NS(=O)(=O)c2ccc(F)cc2)[C@H](CO)O1)NCCN1CCCCC1	none (no result: MITF TRPM1 HTS, Wnt bcat act, miR-122 sensor)
CC(=O)c1sc(N/N=C/c2cccc([N+](=O)[O-])c2)nc1C	MITF TRPM1 HTS 105.0, esBAF inh 59.6 (no result: miR-122 sensor)
CC(=O)c1sc(N/N=C\c2ccc(N(C)C)cc2)nc1C	none (no result: MITF TRPM1 HTS)
CC(=O)c1sc(N/N=C/c2cccc(O)c2)nc1C	MITF TRPM1 HTS 92.9, esBAF inh 63.4
c1ccc(C2Oc3ccccc3C3CC(c4cccs4)=NN32)cc1 (stereo not drawn)	esBAF inh 85.5, Wnt bcat act 37.8
O=C1CCC(=O)N1CCSC(=S)N1CCOCC1	Wnt bcat act 34.5 (no result: MITF TRPM1 HTS, esBAF inh, UUG fidelity, miR-122 sensor, PglD inh)
O=C(O)CCSC(=S)N1CCOCC1	none
C[C@@H]1CCCCO[C@@H](CN(C)S(=O)(=O)c2ccc(Cl)cc2)[C@@H](C)CN([C@H](C)CO)C(=O)c2cc(NS(C)(=O)=O)ccc2O1	none (no result: MITF TRPM1 HTS, Wnt bcat act)
Cc1ccc2c(c1)Sc1c(ccc3ccccc13)N2	esBAF inh 51.2, Wnt bcat act 46.3
C[C@@H]1CN([C@H](C)CO)C(=O)Cc2cc(NC(=O)C3CC3)ccc2O[C@H]1CN(C)S(=O)(=O)c1ccc(F)cc1	none (no result: MITF TRPM1 HTS, Wnt bcat act)
N/C(=N\c1nc2ccccc2o1)NC(=O)c1ccccc1Br	MITF TRPM1 HTS 85.0, esBAF inh 79.9 (no result: miR-122 sensor)
CCCN(C)C[C@@H]1Oc2cc(-c3ccc(F)cc3)ccc2S(=O)(=O)N([C@H](C)CO)C[C@@H]1C	none (no result: MITF TRPM1 HTS, Wnt bcat act)
Cc1ccc(-c2ccc(CCC(=O)O)n2-c2cccc(O)c2)cc1	esBAF inh 63.5 (no result: Wnt bcat act)
Cc1cc(N)n2ncc(-c3cccc(Br)c3)c2n1	esBAF inh 66.0 (no result: Wnt bcat act)
CC(=O)c1cnc2c(-c3cccc(Br)c3)cnn2c1C	MITF TRPM1 HTS 94.7
Cc1cc(-c2ccncc2)n2ncc(-c3ccccc3)c2n1	none (no result: MITF TRPM1 HTS)
C=CCSc1cc(C)nc2c(-c3ccccc3)cnn12	Wnt bcat act 32.5 (no result: esBAF inh, UUG fidelity, miR-122 sensor, PglD inh)
CCOC(=O)Cc1c(C)nc2c(-c3cccc(Br)c3)cnn2c1C	none (no result: esBAF inh, UUG fidelity, miR-122 sensor, PglD inh)
Cc1cc(N)n2ncc(-c3ccccc3)c2n1	esBAF inh 51.4 (no result: Wnt bcat act)
O=C(C[C@@H]1CC[C@@H](NC(=O)C2CCC2)[C@@H](CO)O1)Nc1nccs1	none (no result: MITF TRPM1 HTS, Wnt bcat act, miR-122 sensor)
O=C(Nc1cccnc1N1CCOCC1)c1ccco1	Wnt bcat act 41.1 (no result: esBAF inh)
CNc1cncc(-c2ccc(O)cc2)n1	none (no result: MITF TRPM1 HTS)
CNc1cncc(-c2ccc(OC)cc2)n1	esBAF inh 40.6 (no result: MITF TRPM1 HTS)
COc1ccc(-c2nn(-c3ccccc3)cc2/C=C(\CC(=O)O)c2nc3ccccc3s2)cc1OC	esBAF inh 40.3
COc1ccc(-c2ccc3c(c2)O[C@H](CN(C)C(C)=O)[C@H](C)CN([C@H](C)CO)S3(=O)=O)cc1	none (no result: MITF TRPM1 HTS, Wnt bcat act)
O=C(O)c1ccccc1SCc1csc(-c2ccccc2)n1	esBAF inh 46.7
COC(=O)c1ccccc1SCc1csc(C)n1	none
CN1C(=O)[C@H]2[C@@H](c3ccc(F)cc3)N3C(=O)c4ccccc4NC(=O)[C@@]3(C)[C@H]2C1=O	miR-122 sensor 94.5 (no result: Wnt bcat act)
COc1ccc2c(c1)OC[C@H]1[C@H]2N2C(=O)c3ccccc3NC(=O)[C@@]2(C)[C@H]1c1ccccc1	none (no result: miR-122 sensor)
N#Cc1ccc(NC(=S)N2CCC3CC2c2cc(-c4ccc5c(c4)OCO5)ccc23)cc1 (stereo not drawn)	miR-122 sensor 109.7 (no result: MITF TRPM1 HTS)
C[C@@H]1CN([C@H](C)CO)S(=O)(=O)c2ccc(C#CC3CC3)cc2O[C@@H]1CN(C)C(=O)C1CCC1	none (no result: MITF TRPM1 HTS, Wnt bcat act)
CCCn1c(N)nc2ccccc21	none
CCn1c(CCc2ccccc2)nc2ccccc21	esBAF inh 42.1 (no result: MITF TRPM1 HTS)
CCn1c(N)nc2ccccc21	esBAF inh 52.7
C[C@@H]1CN([C@@H](C)CO)C(=O)c2cccc(NC(=O)c3ccc(-c4nccs4)cc3)c2O[C@H]1CN(C)Cc1ccncc1	none (no result: MITF TRPM1 HTS, Wnt bcat act)
CCCC(=O)Nc1ccc2c(c1)C(=O)N(C)[C@H]1CC[C@@H](CC(=O)NCCCN(C)C)O[C@H]1CO2	none (no result: MITF TRPM1 HTS, Wnt bcat act)
O=C1C(CCc2ccccc2)ON=C(c2cnccn2)N1Cc1ccc(F)cc1 (stereo not drawn)	none (no result: MITF TRPM1 HTS, miR-122 sensor)
CC(=O)Nc1ccc(CN2C(=O)C(CCc3ccccc3)ON=C2c2cnccn2)cc1 (stereo not drawn)	esBAF inh 46.6 (no result: MITF TRPM1 HTS, miR-122 sensor)
CCCC#Cc1ccc([C@H]2[C@@H](C#N)N(C(=O)C3CCCC3)[C@@H]2CO)cc1	none (no result: MITF TRPM1 HTS, Wnt bcat act, miR-122 sensor)
Cc1ccc(NC(=O)CCNC(=O)c2ccccc2Cl)nc1	none
Cc1ccnc(NC(=O)CNC(=O)COc2ccccc2)c1	MITF TRPM1 HTS 89.6, esBAF inh 73.7, Wnt bcat act 38.5
Cc1ccc(NC(=O)CC(NC(=O)c2ccccc2Cl)c2ccccc2)nc1 (stereo not drawn)	none
Cc1ccc(NC(=O)CNC(=O)COc2ccccc2)nc1	none
Cc1ccnc(NC(=O)CCNC(=O)c2ccccc2Cl)c1	esBAF inh 46.1
Cc1ccnc(NC(=O)CC(NC(=O)c2ccccc2Cl)c2ccccc2)c1 (stereo not drawn)	esBAF inh 52.3 (no result: miR-122 sensor)
COc1ccc(NC(=O)N(C)C[C@@H]2Oc3ccc(NC(=O)Nc4ccc(F)cc4)cc3C(=O)N([C@H](C)CO)C[C@@H]2C)cc1	none (no result: MITF TRPM1 HTS, Wnt bcat act)
